# Membrane permeability of cyclic peptides

Source: CycPeptMPDB (Li et al. 2023), which took these values from Townsend et al. 2020, doi:10.26434/chemrxiv.13335941.v1.

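The data file gives no further conditions (lipid, pH, time, direction or concentration), and values from different papers need not be comparable. The list need not hold all peptides of the study. Entries at the database's floor value (log10 P of -10) are not listed.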

PAMPA is the parallel artificial membrane permeability assay, which has no cells and reads passive diffusion. Permeability is given as log10 of P in cm/s; higher (less negative) is more permeable.

| compound | PAMPA (log10 cm/s) |
|---|---|
| CC(C)C[C@@H]1C(=O)N(C)[C@@H](CC(C)C)C(=O)N2CCC[C@H]2C(=O)N[C@H](CC(C)C)C(=O)N[C@@H](Cc2ccccc2)C(=O)N[C@@H](C)C(=O)N1C | -5.61 |
| CCCN1CC(=O)N[C@H](CC(C)C)C(=O)N(C)[C@@H](CC(C)C)C(=O)N2CCC[C@@H]2C(=O)N[C@@H](CC(C)C)C(=O)N[C@@H](Cc2ccccc2)C1=O | -5.29 |
| CCCN1CC(=O)N(C)[C@H](CC(C)C)C(=O)N(C)[C@H](CC(C)C)C(=O)N2CCC[C@H]2C(=O)N(Cc2ccccc2)CC(=O)N[C@@H](Cc2ccccc2)C(=O)N2CCC[C@@H]2C1=O | -5.33 |
| CC(C)C[C@@H]1C(=O)N[C@H](CC(C)C)C(=O)N2CCC[C@@H]2C(=O)N(C)[C@H](CC(C)C)C(=O)N[C@@H](Cc2ccccc2)C(=O)N2CCC[C@H]2C(=O)N[C@@H](Cc2ccccc2)CC(=O)N1C | -5.32 |
| CC(C)C[C@@H]1C(=O)N[C@@H](Cc2ccccc2)C(=O)N[C@@H](Cc2ccccc2)CC(=O)N[C@H](CC(C)C)C(=O)N(C)[C@@H](CC(C)C)C(=O)N2CCC[C@H]2C(=O)N1C | -5.33 |
| CC(C)C[C@@H]1NC(=O)[C@H](C)NC(=O)[C@H](Cc2ccccc2)NC(=O)[C@H](CC(C)C)N(C)C(=O)[C@H]2CCCN2C(=O)C[C@H](Cc2ccccc2)NC1=O | -6.00 |
| CC(C)C[C@@H]1C(=O)N[C@@H](Cc2ccccc2)C(=O)N2CCC[C@H]2C(=O)N(C)[C@H](C)C(=O)N(C)[C@@H](CC(C)C)C(=O)N[C@H](CC(C)C)C(=O)N2CCC[C@@H]2C(=O)N1C | -5.07 |
| CCCN1CC(=O)N(C)[C@@H](CC(C)C)C(=O)N[C@@H](CC(C)C)C(=O)N2CCC[C@@H]2C(=O)N(C)[C@@H](CC(C)C)C(=O)N[C@@H](Cc2ccccc2)C1=O | -4.96 |
| CC(C)C[C@@H]1NC(=O)[C@H]2CCCN2C(=O)CN(Cc2ccccc2)C(=O)[C@H](CC(C)C)NC(=O)[C@@H](C)N(C)C(=O)[C@@H]2CCCN2C(=O)[C@H](Cc2ccccc2)NC1=O | -5.73 |
| CC(C)C[C@@H]1NC(=O)[C@H](C)NC(=O)[C@H]2CCCN2C(=O)[C@H](Cc2ccccc2)NC(=O)[C@H](CC(C)C)N(C)C(=O)[C@H]2CCCN2C(=O)[C@H](CC(C)C)N(C)C1=O | -5.57 |
| CC(C)C[C@@H]1NC(=O)[C@H](C)N(C)C(=O)[C@H]2CCCN2C(=O)[C@H](Cc2ccccc2)NC(=O)[C@@H](CC(C)C)N(C)C(=O)[C@@H]2CCCN2C(=O)[C@H](CC(C)C)NC1=O | -5.69 |
| CC(C)C[C@@H]1NC(=O)[C@@H]2CCCN2C(=O)[C@H](CC(C)C)NC(=O)[C@@H](CC(C)C)N(C)C(=O)C[C@H](Cc2ccccc2)NC(=O)[C@H](Cc2ccccc2)NC1=O | -5.67 |
| CC(C)C[C@@H]1NC(=O)[C@@H](CC(C)C)N(C)C(=O)[C@@H](C)NC(=O)[C@H](Cc2ccccc2)NC(=O)[C@@H](CC(C)C)NC(=O)[C@@H]2CCCN2C1=O | -5.80 |
| CC(C)C[C@@H]1C(=O)N[C@@H](Cc2ccccc2)C(=O)N2CCC[C@@H]2C(=O)N(C)[C@H](C)C(=O)N(C)[C@@H](CC(C)C)C(=O)N(C)[C@H](CC(C)C)C(=O)N2CCC[C@@H]2C(=O)N1C | -6.19 |
| CC(C)C[C@@H]1NC(=O)[C@@H]2CCCN2C(=O)[C@@H](CC(C)C)N(C)C(=O)[C@H](CC(C)C)NC(=O)[C@H](C)N(C)C(=O)[C@H](Cc2ccccc2)NC1=O | -4.94 |
| CCCN1CC(=O)N(C)[C@@H](CC(C)C)C(=O)N(C)[C@H](CC(C)C)C(=O)N2CCC[C@@H]2C(=O)N(C)[C@H](CC(C)C)C(=O)N[C@@H](Cc2ccccc2)C(=O)N2CCC[C@@H]2C1=O | -5.29 |
| CCCN1CC(=O)N[C@H](CC(C)C)C(=O)N[C@H](CC(C)C)C(=O)N2CCC[C@H]2C(=O)N(C)[C@H](CC(C)C)C(=O)N[C@@H](Cc2ccccc2)C(=O)N2CCC[C@H]2C1=O | -5.51 |
| CCCN1CC(=O)N[C@@H](CC(C)C)C(=O)N[C@H](CC(C)C)C(=O)N2CCC[C@@H]2C(=O)N(C)[C@@H](CC(C)C)C(=O)N[C@@H](Cc2ccccc2)C(=O)N2CCC[C@@H]2C1=O | -5.34 |

Extract of 2 entries:

| compound | PAMPA (log10 cm/s) |
|---|---|
| CC(C)C[C@@H]1NC(=O)[C@H]2CCCN2C(=O)CN(Cc2ccccc2)C(=O)[C@H](CC(C)C)NC(=O)[C@@H](C)N(C)C(=O)[C@@H]2CCCN2C(=O)[C@H](Cc2ccccc2)NC1=O | -5.73 |
| CCCN1CC(=O)N[C@H](CC(C)C)C(=O)N(C)[C@@H](CC(C)C)C(=O)N2CCC[C@@H]2C(=O)N[C@@H](CC(C)C)C(=O)N[C@@H](Cc2ccccc2)C1=O | -5.29 |